# Ab-91 heavy chain CDR variants: yeast mating affinities

Binding partner: SARS-CoV-2 spike HR2 peptide, sequence PDVDLGDISGINAS.

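The parent was found by panning a naive human phage display library on the peptide. In library AAYL51, one, two or three CDR residues were substituted; doubles and triples were drawn at random. AlphaSeq pools MATa yeast showing the antibodies with MATalpha yeast showing the peptide. After mating in shaken culture at 30 °C for 16 h, diploids were selected and their barcode pairs sequenced. Scores were corrected for input abundance and mapped to Kd with protein pairs of known affinity run in the same pool. There are three technical replicates.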

The variants keep the light chain, the linker and the frameworks of Ab-91 (scFv order VL, a 15-residue (Gly4Ser)3 linker, VH).
VL: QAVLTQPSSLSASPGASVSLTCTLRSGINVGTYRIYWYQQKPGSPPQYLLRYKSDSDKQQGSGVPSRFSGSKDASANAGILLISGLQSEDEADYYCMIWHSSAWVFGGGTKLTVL
VH: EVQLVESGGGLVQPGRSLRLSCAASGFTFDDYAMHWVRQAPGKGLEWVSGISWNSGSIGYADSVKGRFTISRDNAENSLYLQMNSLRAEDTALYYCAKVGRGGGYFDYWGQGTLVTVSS

Substitutions are numbered in sequence along the VH above, starting at 1 (not Kabat). Values are log10 of the apparent Kd in nM; lower means stronger binding. Replicates are averaged; those with no signal do not enter the mean. A pair that was not seen in any replicate is written "nd"; this usually means weak binding, but a binder can also be missed. Nonspecific signal, from three strains lacking the peptide, appeared in 21% of pairings of library AAYL51, centred on 4.54 (5% of these signals below 3.26); values are not corrected for it.

Variant M34S+W53Y+S57H showed 3.04 (1 of 3 replicates).
Variant F27R+A61I+G100Q showed nd (0 of 3 replicates).
Variant G26Y+S55D+D62P showed 3.52 (2 of 3 replicates).
Variant W53V+A61H+Y105R showed 5.38 (2 of 3 replicates).
Variant S57K+I58E+G103D showed nd (0 of 3 replicates).
Variant F27G+G100S+R101C showed nd (0 of 3 replicates).
Variant Y32Q+I51R+K65G showed 4.92 (2 of 3 replicates).
Variant H35E+G56T+V64C showed 3.60 (1 of 3 replicates).
Variant F29G+Y105E+Y108I showed 4.66 (1 of 3 replicates).
Variant S57T+I58L+K65Y showed 3.10 (3 of 3 replicates).
Variant D30V+D31R+V64Y showed 4.40 (2 of 3 replicates).
Variant S52M+Y60W+S63R showed nd (0 of 3 replicates).
Variant F27C+G50C+G56F showed 4.39 (2 of 3 replicates).
Variant D31R+I51Y+G100R showed 5.23 (1 of 3 replicates).
Variant A33T+S63F+G100E showed nd (0 of 3 replicates).
Variant F27D+S57D+A61N showed nd (0 of 3 replicates).
Variant G26I+G59M showed 4.88 (2 of 3 replicates).
Variant A33L+S63N+Y108F showed 3.91 (1 of 3 replicates).
Variant I51N+G103W+F106V showed 5.93 (1 of 3 replicates).
Variant I58S+D62T+F106W showed 5.16 (1 of 3 replicates).
Variant F27C+S55R+G59C showed 4.22 (2 of 3 replicates).
Variant S55Q+V99F+G104L showed 4.33 (1 of 3 replicates).
Variant N54D+G103Y+Y108T showed 2.96 (2 of 3 replicates).

The remaining entries, values ahead:

3.63 (1 of 3 replicates) for Y32E+I58Y+Y105K.
nd (0 of 3 replicates) for H35W+S63I+K65L.
5.13 (2 of 3 replicates) for G103R+G104A+Y105M.
3.04 (1 of 3 replicates) for S57L+D62C+S63G.
nd (0 of 3 replicates) for I58N+V99C.
5.58 (2 of 3 replicates) for G26F+S55V+I58E.
4.34 (3 of 3 replicates) for G50S+A61K+D62N.
nd (0 of 3 replicates) for D30F+S55K+I58E.
4.27 (3 of 3 replicates) for G26T+S52Y+G104I.
nd (0 of 3 replicates) for G50I+K65Q+R101N.
nd (0 of 3 replicates) for F29E+A33L+H35V.
4.23 (1 of 3 replicates) for F29L+I58P+Y60C.
5.89 (2 of 3 replicates) for S57H+G104F.
3.59 (2 of 3 replicates) for Y60V+D62W.
4.22 (2 of 3 replicates) for I51A+N54S.
4.09 (1 of 3 replicates) for F27H+V64R+G102S.
nd (0 of 3 replicates) for M34G+Y60A+F106V.
nd (0 of 3 replicates) for G26H+G59R+Y60N.
nd (0 of 3 replicates) for D62I+G104H.
nd (0 of 3 replicates) for I51Y+S55R+Y60L.
2.03 (3 of 3 replicates) for D31Q+Y60A+S63Q.
1.76 (3 of 3 replicates) for D31Q+N54Q+I58Q.
5.41 (1 of 3 replicates) for H35G+S52Y+G104P.
nd (0 of 3 replicates) for D31Q+G59F+G104T.

Top 3 of the variants detected in all replicates, tightest first:

{"changes": "D31Q+N54Q+I58Q", "mean, log10 nM": "1.76", "detected": "3 of 3"}
{"changes": "D31Q+Y60A+S63Q", "mean, log10 nM": "2.03", "detected": "3 of 3"}
{"changes": "S57T+I58L+K65Y", "mean, log10 nM": "3.10", "detected": "3 of 3"}

Data: MIT Lincoln Laboratory AlphaSeq set, Engelhart et al. 2022, doi:10.1038/s41597-022-01779-4, as distributed in FLAb.